The test system of series [1] is human albumin. The series is described as follows: Free chlorpromazine in human albumin solution with ethanol (differential solution pH change). Type of series: in vitro ADME. As to conditions: ethanol 0 to 1.0% v/v; room temperature.
For series [2], the system named is human albumin. The series can be described thus: Free pentobarbital in human albumin solution with ethanol (differential solution pH change). The following applies: ethanol 0 to 1.0% v/v, room temperature. Type of series: in vitro ADME.

Counter-ions that a name gives are not always drawn.

In the case of `CN(C)CCCN1c2ccccc2Sc2ccc(Cl)cc21` [Chlorpromazine HCl], in series [1], the “differential solution pH change” value is “continuous pH changes”.

Take `CCCC(C)C1(CC)C(=O)NC(=O)NC1=O` (centres unmarked) [Pentobarbital]: the “ethanol concentration of maximum differential pH change (maximum free soluble drug concentration)” value in series [2] was 0.6 % v/v.

Source of the values: US4401430A, “Method of and apparatus for detoxifying mammalian hosts” (priority 1981, dated 1983).
